Experimental data: PubChem BioAssay AID651719 (The Scripps Research Institute Molecular Screening Center, 2012)
This is a selection; strong and weak results do not stand in their true shares. Calls of active or inactive are those of the source.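 Rule for the calls: active = inhibition above the screen-wide average plus 3 SD (cut at about 13% in these data); inactive = the rest.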

Protein sequences, listed by entry. Tags and fused reporters are not part of them. Residues count along the entry.
UniProt O60755, 1-299 limits assumed: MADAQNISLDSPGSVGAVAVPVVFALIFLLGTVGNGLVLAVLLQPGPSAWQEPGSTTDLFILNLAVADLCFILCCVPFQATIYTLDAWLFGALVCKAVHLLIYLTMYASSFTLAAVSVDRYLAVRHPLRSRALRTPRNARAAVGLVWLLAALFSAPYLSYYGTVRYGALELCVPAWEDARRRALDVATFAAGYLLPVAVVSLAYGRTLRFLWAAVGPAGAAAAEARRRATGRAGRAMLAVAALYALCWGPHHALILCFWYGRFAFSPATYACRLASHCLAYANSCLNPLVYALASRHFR

These compounds were tested against Galanin receptor type 3 (Homo sapiens) (UniProt O60755) (assay: blockers of human galanin receptor 3 – cell-based, fluorescence readout, primary screen (AID 651719;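 note: forskolin and galanin both at EC90 stimulate the cells; cAMP rise reported by CNG channel membrane potential dye signal; 0% = forskolin plus galanin with DMSO and 100% = forskolin alone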)). Conditions: HEK293 GalR3-CNG cAMP membrane potential fluorescence; at 3 µM; hits give high values; galR3 body fused to GalR1 C-terminus.

| SMILES | inhibition |
| --- | --- |
| CCC(=O)N(c1ccccc1)C1(COC)CCN(CCc2cccs2)CC1 | inactive: -2.02% |
| CCC(=O)N(c1ccccc1)C1(COC)CCN(CCn2nnn(CC)c2=O)CC1 | inactive: -1.63% |
